High-throughput results (PubChem)
The list is not random: actives were taken first. Their share in the collection is about 1.9%.
ARNT-TACC3 inh: disrupts binding between human ARNT and TACC3. inhibition, % at 9.99 µM. Q9Y6A5. AlphaScreen His-ARNT PAS-B/GST-TACC3 binding, luminescence; TACC3 fragment carries E629A point mutation. AID 623870. 0.66% of 390,000 active;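 active means mean inhibition of replicates at least 50% and at least half of replicates each reaching 50%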;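 further: 0% = complete ARNT plus TACC3 wells and 100% = ARNT alone without TACC3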
FGF22 binding-1: FGF22 (human) thermal shift binding; Q9HCT0; recombinant FGF22 thermal shift, SYPRO orange fluorescence; percent of sucrose octasulfate shift, DMSO zero; activity (Tm shift, normalised), % at 9.99 µM; 1.5% of 340,000 active;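 active means mean Tm shift, scaled 0 neutral to 100 positive control, at about 1.3% or above, every replicate too, limit read from the data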
UUG fidelity: yeast start codon fidelity modulation. S. cerevisiae UUG-firefly luciferase reporter, luminescence/redox ratio. activity score, % at 18.7 µM. 0.13% of 350,000 active;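 active = replicate mean at a twofold rise or more, about +100% in these data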;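 also: firefly luciferase made from a UUG start codon reports start codon fidelity; reporter light over untreated wells divided by growth signal over untreated wells; some hits fall short of that in this replicate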
ERp5 inh: ERp5 (human) disulfide isomerase inhibition; Q15084; ERp5 insulin aggregation, absorbance 650 nm, 90 min; inhibition, % at 9.99 µM; 0.05% of 350,000 active;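 active means mean replicate inhibition above about 25%, with every replicate also reaching it, limit read from the data, passing the limit was not always enough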
PDI turbidity: PDI (human) enzyme inhibition. 0.052% of 350,000 active. inhibition, % at 10 µM. PDI insulin aggregation turbidity, A650, 90 min;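 active means mean inhibition across replicates of 30% or more, whatever share of single replicates reach that level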
PglD DTNB: blocks C. jejuni PglD acetyltransferase activity | purified PglD enzyme, DTNB colorimetric CoA detection | inhibition, % at 12.5 µM | 0.098% of 360,000 active; in the data active means inhibition above about 16%, passing the limit was not always enough
ARNT Alpha ctr-1: interferes with AlphaScreen signal, flagging false ARNT-TACC3 hits. shares compounds with ARNT-TACC3 inh. His-ARNT PASB-GST AlphaScreen artifact counter-screen, luminescence. AC50, µM (highest dose often 68 µM), inactives show at the highest dose activity change, negative = signal decrease. 50% of 1,200 active. AID 651705;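 active means every separate test run was called active for a drop in luminescence, with AC50 within twice the top valid dose, actives reach about 71 µM in these data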
ARNT Alpha ctr-2: produces AlphaScreen artifacts in ARNT-TACC3 counter-screen. Dual-tagged His-ARNT PASB-GST AlphaScreen artifact counter-screen. AID 720564. AC50, µM. shares compounds with ARNT-TACC3 inh. 70% of 45 active;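 active means luminescence drop, with half-maximal potency fitted within twice the sample's top valid dose, cut at about 70 µM in these data; inactive means the rest, including signal moving the wrong way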
FGF22 binding-2: FGF22 (human) binding in thermal shift; shares compounds with FGF22 binding-1; recombinant FGF22 thermal shift, SYPRO orange fluorescence; thermal shift activity, °C (ΔTm) at 38 µM; 2% of 1,000 active;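 active means fitted rise in melting shift crosses a set limit at or below the top valid dose tested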
SYPRO no-protein: counter-screen for FGF22 binders: compound-only thermal shift, no protein. shares compounds with FGF22 binding-1. compound-only SYPRO orange thermal shift counter-screen. AC50, µM (doses to about 38 µM). 2% of 1,000 active. AID 743019;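 active means rising signal whose fitted curve reaches the 0.54 level within the top valid dose, showing a melting point, actives reach about 13 µM in these data; inactive means the rest, including activity in the opposite direction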; further: value is where the raw curve crosses a fixed level and not half-maximal
Starred values were filed as active, the others as inactive; i = inactive; . = no result; [ ] = remark or other dose.

SMILES	ARNT-TACC3 inh	FGF22 binding-1	UUG fidelity	ERp5 inh	PDI turbidity	PglD DTNB	ARNT Alpha ctr-1	others
OCC1CCN(c2nc(-c3ccccn3)nnc2-c2ccccc2)CC1	.	.	.	.	.	.	2.8µM*
c1ccc(-c2nnc(-c3ccccn3)nc2N2CCC(C3CCCCC3)C2)cc1 (centres undefined)	.	.	.	.	.	.	5.3µM*
Cc1cccc(S(=O)(=O)N2CCCCN3[C@H](C2)[C@@H](c2ccc(C#CC(C)C)cc2)[C@@H]3CO)c1	-1	-1	4	-2	.	8	.
CO[C@@H]1CN(C)C(=O)c2ccc(NC(=O)CC(F)(F)F)cc2OC[C@H](C)N(C(=O)C2CC2)C[C@@H]1C	.	0	.	-1	.	.	.
CN(C)CCN(C(=O)c1ccc2c(c1)OCCO2)c1nc2cc3c(cc2s1)OCO3	7	0	0	1	-2	-7	.
CN(C)CCN(C(=O)c1ccc2c(c1)CCCC2)c1nc2cc3c(cc2s1)OCCO3	52*	0	-2	2	8	4	24µM*
COc1ccc(NC(=O)N2CCC3(CC2)CN(C(=O)CN2CCOCC2)[C@@H](CO)c2[nH]c4cc(OC)ccc4c23)cc1	.	0	.	9	.	.	.
CCCCC(=O)NC(c1cccc([N+](=O)[O-])c1)c1ccc2cccnc2c1O (centres undefined)	61*	0	-26	-3	-1	0	8.1µM*
CCCC(=O)NC(c1ccccc1)c1ccc2cccnc2c1O (centres undefined)	61*	0	-4	-1	-4	7	28µM*
CCCCC(=O)NC(c1ccccc1)c1ccc2cccnc2c1O (centres undefined)	-17	0	-4	1	-2	10	.
CC(=O)NC(c1cccc([N+](=O)[O-])c1)c1ccc2cccnc2c1O (centres undefined)	21	-1	-23	1	-2	-1	.
CCOC(=O)C(NC(=O)c1cccnc1)(Nc1cccc(C)n1)C(F)(F)F (centres undefined)	-4	.	-20	.	19	1	.
CCOC(=O)C(NCc1ccccn1)(NC(=O)c1cccnc1)C(F)(F)F (centres undefined)	66*	.	-34	.	-1	-12	-16%
CCC(=O)Nc1ccc2c(c1)C(=O)N(C)C[C@H](OC)[C@H](C)CN(C(=O)NC(C)C)[C@H](C)CO2	-4	0	-15	10	.	1	.
CCC(COC)Oc1cc(NCc2ccccc2)c2ncn(C(C)C)c2c1 (centres undefined)	56*	0	-28	-5	-2	2	34µM*
O=C(C[C@H]1C=C[C@@H](NC(=O)Nc2ccc3c(c2)OCO3)[C@H](CO)O1)NCc1ccc(Cl)cc1	24*	0	-7	-2	.	-1	-16%[42 µM]
Fc1ccc(NC(=S)NCc2ccccn2)cc1	4	.	-21	.	0	-2	.
Fc1ccc(-c2ccc(CNCc3ccccn3)o2)cc1	61*	0	-27	-7	-32	3	-29%
O=C(CSc1ccc(-c2ccccn2)nn1)NC1CCCCC1	55*	0	.	-1	8	.	26µM*	ARNT Alpha ctr-2=20*
O=C(CSc1ccc(-c2cccc([N+](=O)[O-])c2)nn1)NCc1ccccc1	0	0	.	-3	-7	.	.
O=C(CSc1ccc(-c2ccccn2)nn1)NCc1ccccc1	102*	0	.	4	3	.	41µM*
O=C(CSc1ccc(-c2ccccn2)nn1)NCc1ccc(F)cc1	55*	0	.	6	-4	.	29µM*
CO[C@H]1CN(C)C(=O)c2ccc(NS(C)(=O)=O)cc2OC[C@H](C)N(C(=O)NC(C)C)C[C@@H]1C	.	0	.	13	.	.	.
CNC(=O)C[C@@H]1CC[C@H]2[C@H](COc3ccc(NC(=O)c4ccc(C(F)(F)F)cc4)cc3C(=O)N2C)O1	2	0	0	.	.	2	.
O=S(=O)(c1ccccc1)c1nc(-c2ccco2)oc1Nc1ccccc1	active	0	.	-7	-2	.	62µM*
COC(=O)C1(NC(=O)CNC(=O)OCc2ccccc2)CCCC1	active	0	-9	-4	-5	0	-1%
CC(C)C(NC(=O)C1(NC(=O)OCc2ccccc2)CCCC1)C(=O)O (centres undefined)	-53	.	-11	4	8	1	.
C[C@H]1CN([C@@H](C)CO)C(=O)c2cccc(NC(=O)Nc3ccc(C(F)(F)F)cc3)c2O[C@@H]1CN(C)Cc1ccc(-c2ccccc2)cc1	0	0	-20	1	.	0	.
O=C(Nc1nccs1)c1cnccn1	51*	.	-15	.	-2	-3	-5%
Nc1ccc2nn(-c3ccc(F)cc3)nc2c1	17*	0	-12	7	0	-1	-25%

Grouped by structure, those above with a furan ring, fused or not (2)
SMILES	ARNT-TACC3 inh	FGF22 binding-1	UUG fidelity	ERp5 inh	PDI turbidity	PglD DTNB	ARNT Alpha ctr-1	others
Fc1ccc(-c2ccc(CNCc3ccccn3)o2)cc1	61*	0	-27	-7	-32	3	-29%
O=S(=O)(c1ccccc1)c1nc(-c2ccco2)oc1Nc1ccccc1	active	0	.	-7	-2	.	62µM*

Sorted by molecular weight (low to high): part of the list above.
SMILES	ARNT-TACC3 inh	FGF22 binding-1	UUG fidelity	ERp5 inh	PDI turbidity	PglD DTNB	ARNT Alpha ctr-1	others
Nc1ccc2nn(-c3ccc(F)cc3)nc2c1	17*	0	-12	7	0	-1	-25%
COC(=O)C1(NC(=O)CNC(=O)OCc2ccccc2)CCCC1	active	0	-9	-4	-5	0	-1%
O=S(=O)(c1ccccc1)c1nc(-c2ccco2)oc1Nc1ccccc1	active	0	.	-7	-2	.	62µM*

(next part)
SMILES	ARNT-TACC3 inh	FGF22 binding-1	UUG fidelity	ERp5 inh	PDI turbidity	PglD DTNB	ARNT Alpha ctr-1	others
C[C@H](CO)N1C[C@H](C)[C@@H](CN(C)C(=O)Nc2ccc3c(c2)OCO3)Oc2c(NS(=O)(=O)c3ccc(Cl)cc3)cccc2C1=O	-3	0	3	11	.	1	.
COc1ccc(OC)c2nc3c(C(=O)NCCN(C)C)cccc3nc12	20*	0	.	4	3	.	-5%
O=C(O)C[C@@H]1C[C@H]2c3cc(NC(=O)Nc4ccc(F)cc4)ccc3O[C@H]2[C@H](CO)O1	-4	0	-17	-9	.	2	.
CC(C)NC(=O)Nc1ccc2c(c1)C(=O)N([C@H](C)CO)C[C@@H](C)[C@@H](CN(C)C(=O)Nc1ccccc1)OCCCC[C@@H](C)O2	66*	2.6*	.	-4	.	0	-3%[38 µM]	FGF22 binding-2=0.013;SYPRO no-protein=i
COc1ccc(C#Cc2cnc3c(c2)C(=O)N([C@H](C)CO)C[C@H](C)[C@@H](CN(C)C(=O)c2ccccc2F)O3)cc1	0	1	13	-1	.	-1	.
Cc1nc2ccccc2c2oc(C(=O)NCc3ccc4c(c3)OCO4)cc12	4	11*	-25	2	.	-8	.	FGF22 binding-2=-4.6[19.5 µM];SYPRO no-protein=6.3µM*
C[C@@H](NC(=O)C[C@H]1CC[C@H](NC(=O)C2CCC2)[C@H](CO)O1)c1ccccc1	0	0	-2	-2	.	1	.
